{
  "source": "patent US9574016B2",
  "about": "“Complex of bi-specific antibody and digoxigenin conjugated to a therapeutic or diagnostic agent” (Hoffmann-La Roche Inc., priority 2009, dated 2017)",
  "key": {"[1]": {"system": "AHA1 mRNA in MCF-7 cells", "assay": "AHA1 mRNA knockdown by DIG-labeled siRNA-lipid nanoparticles (bDNA)", "type": "cell-based, human", "conditions": "no siRNA, only antibody (3.24 nM), 12 h", "method": "(iii) Complexation of DIG-labeled siRNA-lipid nanoparticles with <Target-DIG> bispecific antibodies. DIG-labeled siRNA-lipid nanoparticles containing 1 pmol of AHA1-, DIG-coupled AHA1-, or luciferase (LUC)-siRNAs were incubated with 3.24 pmol of bispecific antibodies directed against either the tumor-associated LewisY oligosaccharide and DIG <LeY-DIG> or against the sialic acid-binding transmembrane protein, CD22, and DIG <CD22-DIG> or with Dulbecco's Phosphate Buffered Saline (D-PBS) (Invitrogen, Carlsbad, Calif.) in a final volume of 200 μl Opti-MEM® vitrogen GmbH, Darmstadt, Germany) at RT for 30 min.\n(iv) Evaluation of targeting- and mRNA silencing properties of DIG-labeled siRNA-lipid nanoparticles in combination with <Target-DIG> bispecific antibodies in vitro; MCF-7 cells were seeded on a 96-well plate with a density of 15,000 cells/well in 80 μl medium (RPMI 1640 Medium, 10% fetal calf serum, 100 U/ml penicillin/streptomycin; Biochrom AG, Berlin, Germany) and incubated overnight in a cell incubator (37° C., 95% H2O, 5% CO2). […] After incubation, cells were lysed and AHA1- and GAPDH-mRNA concentrations were quantified using a commercially available bDNA-quantification system (Affymetrix Inc., Fremont, Calif.). […]"}, "[2]": {"system": "Aha1 mRNA in LeY positive MCF7 cells", "assay": "bDNA assay of bispecific / DIG-siRNA / CPP-PolyArg complexes", "type": "cell-based, human", "conditions": "MCF7, 3 h plus 21 hours", "method": "To analyze these complexes for their ability to specifically induce mRNA silencing in target cells, we compared targeted siRNA transfection of complexes that contained either a <LeY>-<DIG> and a <CD22>-<DIG> bispecific antibody, which were charged with a DIG labeled siRNA targeting either Aha1 or as a control luciferase. These complexes were formed by pre-incubation Dig-siRNA with <Dig> bispecific at room temperature for 30 minutes, followed by addition of the CPP-PolyArg (siRNA binding) entity to generate the full transfection competent complex. The entire complex was incubated for further 30 minutes at room temperature before adding to LeY positive MCF7 cells for a duration of three hours in Optimem medium. After subsequent incubation in growth medium for another 21 hours, the cells were lysed, and their mRNA content was analyzed using a bDNA assay."}},
  "data": [
    {"molecule": "CD22-DIG: bispecific antibody binding CD22 and digoxigenin; SEQ. ID NO. 13 or 55 and 14 or 56 (antibody, humanized <CD22> <dig> H-chain, disulfide- stabilized; humanized <CD22> <dig> L-chain) heavy: EVQLVESGGGLVKPGGSLKLSCAASGFAFSIYDMSWVRQTPEKRLEWVAYISSGGGTTYYPDTVKGRFTISRDNAKNTLYLQMSSLKSEDTAMYYCARHSGYGSSYGVLFAYWGQGTLVTVSAASTKGPSVFPLAPSSKSTSGGTAALGCLVKDYFPEPVTVSWNSGALTSGVHTFPAVLQSSGLYSLSSVVTVPSSSLGTQTYICNVNHKPSNTKVDKKV[human IgG1 Fc not shown]GGGGSGGGGSQVQLVESGGGLVKPGGSLRLSCAASGFTFSDYAMSWIRQAPGKCLEWVSSINIGATYIYYADSVKGRFTISRDNAKNSLYLQMNSLRAEDTAVYYCARPGSPYEYDKAYYSMAYWGQGTTVTVSSGGGGSGGGGSGGGGSGGGGSDIQMTQSPSSLSASVGDRVTITCRASQDIKNYLNWYQQKPGKAPKLLIYYSSTLLSGVPSRFSGSGSGTDFTLTISSLQPEDFATYYCQQSITLPPTFGCGTKVEIK light: DIQMTQTTSSLSASLGDRVTISCRASQDISNYLNWYQQKPDGTVKLLIYYTSILHSGVPSRFSGSGSGTDYSLTISNLEQEDFATYFCQQGNTLPWTFGGGTKLEIKTVAAPSVFIFPPSDEQLKSGTASVVCLLNNFYPREAKVQWKVDNALQSGNSQESVTEQDSKDSTYSLSSTLTLSKADYEKHKVYACEVTHQGLSSPVTKSFNRGEC", "values": [
      {"measurement": "relative AHA1-mRNA concentration", "setting": "[1]", "result": 96.3, "unit": "%"},
      {"measurement": "Aha1 mRNA silencing", "setting": "[2]", "result": "reduced RNAi compared to the effects that could be reached with the <LeY-Dig> bispecific antibody"}
    ]}
  ]
}
